Results reported in patent US10525030B2 (priority 2013, dated 2020).

Test system: MES test (electrical stimulus through corneal electrodes)
Assay: Anti-excitation activity using MES test
Format: in vivo, male ICR mice
Settings: mice, injection amount 50 mg/kg; percentage of activity compared to the vehicle only

Compound	MES test(po) Protection %
C[C@H](OC(N)=O)[C@@H](O)c1ccccc1F	50 ^a(100%)
C[C@H](OC(N)=O)[C@@H](O)c1ccccc1I [Compound 65, 1-(2-iodophenyl)-(S)-1-hydroxypropyl-(S)-2-carbamate]	50 ^a(100%)

Same assay, conditions: mice, injection amount 100 mg/kg; percentage of activity compared to the vehicle only

Compound	MES test(po) Protection %
CCCC[C@H](OC(N)=O)[C@@H](O)c1c(Cl)cccc1Cl	100 ^a(75%)
CCCC[C@H](OC(N)=O)[C@@H](O)c1ccc(Cl)cc1Cl	100 ^a(25%)
CCCC[C@H](OC(N)=O)[C@@H](O)c1ccccc1Cl	100 ^a(75%)
CCC(OC(N)=O)C(O)c1ccccc1Cl (racemic)	100 ^a(100%)
CC[C@H](OC(N)=O)[C@@H](O)c1ccccc1I [Compound 67, 1-(2-iodophenyl)-(S)-1-hydroxybutyl-(S)-2-carbamate]	100 ^a(100%)

Same assay, conditions: mice, injection amount 200 mg/kg; percentage of activity compared to the vehicle only

Compound	MES test(po) Protection %
CCCC[C@@H](OC(N)=O)[C@H](O)c1ccccc1Cl	200 ^a(75%)
CCCCC(OC(N)=O)C(O)c1ccccc1Cl (racemic)	200 ^a(100%)
